Measured values as given in patent publication US20220024982A1, “BICYCLIC PEPTIDE LIGANDS SPECIFIC FOR MT1-MMP” (BicycleTx Limited, priority 2018, published 2022).

Target: human MT1 MMP14 protein, hemopexin domain (obtained from Merck Millipore) (human) (UniProt P50281)
Assay: SPR, biotinylated target on streptavidin chip

Substance: BCY12403 (peptide)
- Kd: 56.1 nM
